Source: article PMC5905335 (Cancer discovery, 2017)

Tests used:
[1] = Plasma pharmacokinetics after single and multiple daily dosing; conditions: human, in vivo
PARP = assay: PBMC PARP activity; assay type: in vivo, human; conditions: multiple dosing 1.0 mg/day, n = 4

In the case of `Cn1ncnc1[C@H]1c2n[nH]c(=O)c3cc(F)cc(c23)N[C@@H]1c1ccc(F)cc1` [talazoparib], the “CL/F, mean (SD)” value ([1]; 0.025 mg) is reported as 5.17 (2.10) L/h, the “CL/F, mean (SD)” value ([1]; 0.05 mg) is reported as 6.27 (1.66) L/h and the “CL/F, mean (SD)” value ([1]; 0.1 mg) is reported as 2.72 (0.532) L/h. For the same compound, the “CL/F, mean (SD)” value ([1]; 0.2 mg) was 2.61 (1.35) L/h, the “CL/F, mean (SD)” value ([1]; 0.4 mg) was 6.95 (1.71) L/h and the “CL/F, mean (SD)” value ([1]; 0.6 mg) was 5.19 (0.99) L/h. For the same compound, the “CL/F, mean (SD)” value ([1]; 0.9 mg) was 5.49 (2.08) L/h, the “CL/F, mean (SD)” value ([1]; 1 mg) was 5.39 (1.59) L/h and the “CL/F, mean (SD)” value ([1]; 1.1 mg) was 5.32 (1.64) L/h. For the same compound, the “PARP activity, mean (SD)” value (PARP) was 21.1 (14.9) % baseline.
